For orientation: DC50 means the concentration giving 50% degradation. Broadly, the pIC50 is the IC50 on a negative log10 scale, so that one unit is a factor of ten.

Protein sequences, listed by entry. Tags and fused reporters are not part of them. Residues count along the entry.
UniProt P42226, whole entry: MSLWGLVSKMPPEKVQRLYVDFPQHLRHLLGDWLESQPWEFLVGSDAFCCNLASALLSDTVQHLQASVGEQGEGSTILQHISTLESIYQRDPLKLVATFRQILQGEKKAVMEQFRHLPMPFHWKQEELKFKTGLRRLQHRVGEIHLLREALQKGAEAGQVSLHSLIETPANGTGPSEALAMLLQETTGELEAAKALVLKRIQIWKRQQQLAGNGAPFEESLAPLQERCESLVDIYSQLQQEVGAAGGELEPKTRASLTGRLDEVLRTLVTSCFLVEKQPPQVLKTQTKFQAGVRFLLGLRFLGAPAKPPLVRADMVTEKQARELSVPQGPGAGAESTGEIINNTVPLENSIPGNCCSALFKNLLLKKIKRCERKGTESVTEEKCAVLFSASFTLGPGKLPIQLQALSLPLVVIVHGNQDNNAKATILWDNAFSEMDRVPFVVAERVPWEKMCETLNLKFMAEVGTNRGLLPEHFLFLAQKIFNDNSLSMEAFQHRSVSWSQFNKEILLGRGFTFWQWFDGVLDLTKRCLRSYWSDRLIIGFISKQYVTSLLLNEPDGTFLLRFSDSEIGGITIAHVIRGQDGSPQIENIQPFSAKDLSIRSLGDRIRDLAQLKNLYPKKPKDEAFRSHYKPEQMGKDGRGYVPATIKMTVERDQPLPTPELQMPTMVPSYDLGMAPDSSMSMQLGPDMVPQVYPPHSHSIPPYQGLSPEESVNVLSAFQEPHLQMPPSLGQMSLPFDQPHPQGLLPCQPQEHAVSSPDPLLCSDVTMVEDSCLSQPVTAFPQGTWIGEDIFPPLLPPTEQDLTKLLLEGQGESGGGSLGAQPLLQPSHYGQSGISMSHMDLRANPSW
UniProt P42226, 123-632 limits assumed: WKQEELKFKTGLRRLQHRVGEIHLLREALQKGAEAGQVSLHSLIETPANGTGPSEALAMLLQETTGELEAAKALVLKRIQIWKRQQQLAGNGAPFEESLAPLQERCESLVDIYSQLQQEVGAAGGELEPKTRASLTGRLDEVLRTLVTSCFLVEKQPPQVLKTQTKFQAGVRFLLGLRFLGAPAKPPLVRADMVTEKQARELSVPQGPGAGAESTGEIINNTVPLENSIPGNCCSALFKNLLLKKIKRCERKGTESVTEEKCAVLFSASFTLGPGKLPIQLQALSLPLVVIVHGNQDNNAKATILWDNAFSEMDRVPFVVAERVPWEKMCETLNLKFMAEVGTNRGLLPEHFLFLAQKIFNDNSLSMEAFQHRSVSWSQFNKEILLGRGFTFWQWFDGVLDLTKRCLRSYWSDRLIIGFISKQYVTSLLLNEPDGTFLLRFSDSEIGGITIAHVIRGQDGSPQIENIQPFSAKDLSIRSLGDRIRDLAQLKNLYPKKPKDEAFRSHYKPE

For one test, the target named is STAT6-HiBiT (Homo sapiens, UniProt P42226). Description: STAT6 HiBiT degradation in A549 (STAT6-HiBiT) cells. The following applies: for DC50: read-out: STAT6 HiBiT degradation DC50 (nM) 24 h. For orientation: HiBiT is a short tag that completes a luciferase, so light tracks the accessible tagged protein.
The target of the next test is STAT6 (Homo sapiens, UniProt P42226). The test is described as follows: STAT6 MSD degradation in A549 cells. The note with it: for DC50: read-out: STAT6 MSD degradation DC50 (nM) 24 h. Put shortly: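 A549 cells treated with a 9-point 1:3 series (top up to 10 uM) for 4 to 24 hours at 37° C., then lysed in RIPA. STAT6 quantified by sandwich MSD electrochemiluminescence immunoassay. DC50 and Dmax from four-parameter nonlinear fit, reported as letter-code bins.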

Test [1] concerns the target biotinylated truncated STAT6 (123-632)-avi (Homo sapiens, UniProt P42226). The test is described as follows: STAT6 HTRF binding assay. The note with it: read-out: STAT6 HTRF: Average IC50, 0.15 nM biotinylated truncated STAT6 (123-632)-avi, 20 nM fluorescein-labeled probe.

pIC50: −log10 of the molar value. Read-outs that look alike come from different tables or passages of the source.

In the case of `Cc1cc(C2CCN(c3ccc(C4CCC(=O)NC4=O)cc3F)CC2)ccc1-c1cc(C2=CCCN(C(=O)CCn3cccn3)C2)c(F)c2[nH]c(C(=O)N(C)C)cc12` (stereo not shown), the “STAT6 HiBiT degradation Dmax % 24 h” value on STAT6-HiBiT is given as “A (A (>90%))”. Also, at STAT6, the “STAT6 MSD degradation Dmax % 24 h” value is recorded as “A (A (>90%))” and the DC50 was under 1 nM. Further, in test [1] (HTRF binding), the pIC50 is over 7.00.
`CC(C)C(=O)N1CCC=C(c2cc(-c3ccc(N4CCN(CCc5cccc6c(C7CCC(=O)NC7=O)nn(C)c56)[C@@H](C)C4)cc3F)c3cc(C(=O)N(C)C)[nH]c3c2F)C1` (stereo partly shown): at STAT6-HiBiT, the “STAT6 HiBiT degradation Dmax % 24 h” value is “A (A (>90%))” and the DC50 was 1 to 10 nM. Also, at STAT6, the “STAT6 MSD degradation Dmax % 24 h” value was “A (A (>90%))” and the DC50 lay within 1 to 10 nM. Further, the pIC50 in test [1] (HTRF binding) is 5.00 to 6.00.
As to `CC(C)C(=O)N1CCC=C(c2cc(-c3ccc(N4CCN(CCc5cccc6c5n(C)c(=O)n6C5CCC(=O)NC5=O)CC4)cc3Cl)c3cc(C(=O)N(C)C)[nH]c3c2F)C1` (stereo not shown), on STAT6-HiBiT, the “STAT6 HiBiT degradation Dmax % 24 h” value is recorded as “A (A (>90%))” and the DC50 was under 1 nM. For the same compound, at STAT6, the “STAT6 MSD degradation Dmax % 24 h” value is given as “A (A (>90%))” and the DC50 is under 1 nM. Besides, the pIC50 in test [1] (HTRF binding) was 5.00 to 6.00.
Regarding `CN(C)C(=O)c1cc2c(-c3cc(F)c(N4CCN(c5ccc(C6CCC(=O)NC6=O)cc5F)CC4)cc3F)cc(C3=CCCN(C(=O)CCn4ccnn4)C3)c(F)c2[nH]1` (stereo not shown), at STAT6-HiBiT, the “STAT6 HiBiT degradation Dmax % 24 h” value is “A (A (>90%))” and the DC50 is under 1 nM. At STAT6, the “STAT6 MSD degradation Dmax % 24 h” value is “B (B (>70-90%))” and the DC50 was under 1 nM. In test [1] (HTRF binding), the pIC50 is over 7.00.
Regarding `CN(C)C(=O)c1cc2c(-c3ccc(C4CCN(c5ccc(C6CCC(=O)NC6=O)cc5F)CC4)c(F)c3)cc(C3=CCCN(C(=O)CCn4cccn4)C3)c(F)c2[nH]1` (stereo not shown), at STAT6-HiBiT, the “STAT6 HiBiT degradation Dmax % 24 h” value is reported as “A (A (>90%))” and the DC50 was under 1 nM. On STAT6, the “STAT6 MSD degradation Dmax % 24 h” value is “A (A (>90%))” and the DC50 was under 1 nM. Besides, in test [1] (HTRF binding), the pIC50 was 6.00 to 7.00.
As to `CC(=O)N1CCC=C(c2cc(-c3ccc(N4CCN(CCc5cccc6c5n(C)c(=O)n6C5CCC(=O)NC5=O)CC4)cc3OC(F)(F)F)c3cc(C(=O)N(C)C)[nH]c3c2F)C1` (stereo not shown), the “STAT6 HiBiT degradation Dmax % 24 h” value on STAT6-HiBiT is “A (A (>90%))”. For the same compound, on STAT6, the “STAT6 MSD degradation Dmax % 24 h” value was “A (A (>90%))” and the DC50 is under 1 nM. The pIC50 in test [1] (30 minutes at room temperature) was 6.00 to 7.00.
With `CN(C)C(=O)c1cc2c(-c3ccc(N4CCC(c5ccc(C6CCC(=O)NC6=O)cc5F)CC4)c(F)c3F)cc(C3=CCCN(C(=O)CCn4ccnn4)C3)c(F)c2[nH]1` (stereo not shown), at STAT6-HiBiT, the “STAT6 HiBiT degradation Dmax % 24 h” value was “A (A (>90%))” and the DC50 was under 1 nM. Moreover, on STAT6, the “STAT6 MSD degradation Dmax % 24 h” value is given as “A (A (>90%))” and the DC50 is under 1 nM. Further, in test [1] (HTRF binding), the negative logarithm of the IC50 (pIC50) is over 7.00.
Consider `Cc1nn(C2CCC(=O)NC2=O)c2cccc(CCN3CC[C@H](c4cc(F)c(-c5cc(C6=CCCN(C(=O)CCn7cccn7)C6)c(F)c6[nH]c(C(=O)N(C)C)cc56)cc4F)C(F)(F)C3)c12` (stereo partly shown), for which, on STAT6-HiBiT, the “STAT6 HiBiT degradation Dmax % 24 h” value is “A (A (>90%))” and the DC50 is under 1 nM. Besides, at STAT6, the “STAT6 MSD degradation Dmax % 24 h” value is recorded as “A (A (>90%))” and the DC50 is under 1 nM. The pIC50 in test [1] (HTRF binding) was over 7.00.
In the case of `Cc1nn(C2CCC(=O)NC2=O)c2cccc(CCN3CCN(c4cc(Cl)c(-c5cc(C6=CCCN(C(=O)CCn7cccn7)C6)c(F)c6[nH]c(C(=O)N(C)C)cc56)cc4F)CC3)c12` (single isomer, unassigned) [Example I-1079], on STAT6-HiBiT, the “STAT6 HiBiT degradation Dmax % 24 h” value is recorded as “A (A (>90%))”. Also, at STAT6, the “STAT6 MSD degradation Dmax % 24 h” value was “A (A (>90%))” and the DC50 was under 1 nM. For the same compound, the pIC50 in test [1] (HTRF binding) is over 7.00.
For the compound `CN(C)C(=O)c1cc2c(-c3cc(F)c(N4CCC(N5CCC(c6ccc(C7CCC(=O)NC7=O)cc6F)CC5)CC4)cc3F)cc(C3=CCCN(C(=O)CCn4cccn4)C3)c(F)c2[nH]1` (stereo not shown), at STAT6-HiBiT, the “STAT6 HiBiT degradation Dmax % 24 h” value is listed as “A (A (>90%))” and the DC50 is under 1 nM. On STAT6, the “STAT6 MSD degradation Dmax % 24 h” value is listed as “B (B (>70-90%))” and the DC50 was under 1 nM. In addition, in test [1] (HTRF binding), the pIC50 is over 7.00.
In the case of `CN(C)C(=O)c1cc2c(-c3ccc(C4CCN(c5ccc(C6CCC(=O)NC6=O)cc5F)CC4)c(F)c3F)cc(C3=CCCN(C(=O)CCn4cccn4)C3)c(F)c2[nH]1` (stereo not shown), on STAT6-HiBiT, the “STAT6 HiBiT degradation Dmax % 24 h” value is “A (A (>90%))” and the DC50 is under 1 nM. On STAT6, the “STAT6 MSD degradation Dmax % 24 h” value is on record as “A (A (>90%))” and the DC50 is under 1 nM. Moreover, the pIC50 in test [1] (HTRF binding) is 6.00 to 7.00.
On to `CN(C)C(=O)c1cc2c(F)c(C3=CCCN(C(=O)CCn4cccn4)C3)cc(-c3ccc(N4CCN(CCc5ccc(C6CCC(=O)NC6=O)cc5F)CC4)cc3)c2o1` (stereo not shown), for which the “STAT6 HiBiT degradation Dmax % 24 h” value at STAT6-HiBiT was “A (A (>90%))”. At STAT6, the “STAT6 MSD degradation Dmax % 24 h” value is recorded as “B (B (>70-90%))” and the DC50 was 1 to 10 nM. For the same compound, the pIC50 in test [1] (30 minutes at room temperature) was 6.00 to 7.00.
Regarding `Cc1cc(C2CCN(c3cccc4c(C5CCC(=O)NC5=O)nn(C)c34)CC2)ccc1-c1cc(C2=CCCN(C(=O)CCn3cccn3)C2)c(F)c2[nH]c(C(=O)N(C)C)cc12` (stereo not shown), at STAT6-HiBiT, the “STAT6 HiBiT degradation Dmax % 24 h” value was “A (A (>90%))” and the DC50 is under 1 nM. For the same compound, at STAT6, the “STAT6 MSD degradation Dmax % 24 h” value is listed as “A (A (>90%))” and the DC50 fell in the range of 1 to 10 nM. The pIC50 in test [1] (HTRF binding) is 6.00 to 7.00.
Take `CN(C)C(=O)c1cc2c(-c3ccc(C4CCN(c5cc(F)c(C6CCC(=O)NC6=O)cc5F)CC4)cc3)cc(C3=CCCN(C(=O)CCn4cccn4)C3)c(F)c2[nH]1` (stereo not shown): on STAT6-HiBiT, the “STAT6 HiBiT degradation Dmax % 24 h” value is given as “A (A (>90%))” and the DC50 was under 1 nM. Moreover, at STAT6, the “STAT6 MSD degradation Dmax % 24 h” value is “A (A (>90%))” and the DC50 was under 1 nM. Besides, the pIC50 in test [1] (HTRF binding) is over 7.00.
Regarding `CN(C)C(=O)c1cc2c(-c3cc(F)c(N4CCC(N5CCN(c6ccc(C7CCC(=O)NC7=O)cc6F)CC5)CC4)cc3F)cc(C3=CCCN(C(=O)CCn4cccn4)C3)c(F)c2[nH]1` (stereo not shown), the “STAT6 HiBiT degradation Dmax % 24 h” value on STAT6-HiBiT was “A (A (>90%))”. Also, on STAT6, the “STAT6 MSD degradation Dmax % 24 h” value is recorded as “A (A (>90%))” and the DC50 was under 1 nM. In test [1] (HTRF binding), the pIC50 was over 7.00.
Turning to `COc1cc(N2CCN(CCc3ccc(C4CCC(=O)NC4=O)cc3F)CC2)ccc1-c1cc(C2=CCCN(C(C)=O)C2)c(F)c2[nH]c(C(=O)N(C)C)cc12` (stereo not shown), at STAT6-HiBiT, the “STAT6 HiBiT degradation Dmax % 24 h” value was “A (A (>90%))” and the DC50 is 1 to 10 nM. On STAT6, the “STAT6 MSD degradation Dmax % 24 h” value was “B (B (>70-90%))” and the DC50 was 1 to 10 nM. The pIC50 in test [1] (30 minutes at room temperature) is over 7.00.
Consider `CN(C)C(=O)c1cc2c(-c3ccc(C4CCN(c5ccc(C6CCC(=O)NC6=O)cc5F)CC4)cc3F)cc(C3=CCCN(C(=O)CCn4cccn4)C3)c(F)c2[nH]1` (stereo not shown), for which, at STAT6-HiBiT, the “STAT6 HiBiT degradation Dmax % 24 h” value is given as “A (A (>90%))”. On STAT6, the “STAT6 MSD degradation Dmax % 24 h” value is recorded as “A (A (>90%))” and the DC50 is under 1 nM. Further, in test [1] (HTRF binding), the pIC50 was over 7.00.
`CN(C)C(=O)c1cc(-c2ccc(C3CCN(c4ccc(C5CCC(=O)NC5=O)cc4F)CC3)cc2)c2c(c1)c(F)c(C1=CCCN(C(=O)CCn3ccnn3)C1)n2CC1CC1` (stereo not shown): on STAT6-HiBiT, the “STAT6 HiBiT degradation Dmax % 24 h” value is given as “A (A (>90%))” and the DC50 was under 1 nM. The pIC50 in test [1] (HTRF binding) was over 7.00.
For `CN(C)C(=O)c1cc(-c2ccc(C3CCN(c4cccc5c(C6CCC(=O)NC6=O)nn(C)c45)CC3)cc2)c2nc(C3=CCCN(C(=O)CCn4ccnn4)C3)sc2c1` (stereo not shown) the same measures were “A (A (>90%))”, under 1 nM and over 7.00.

The values above are taken from patent US20260124309A1, “STAT6 DEGRADERS AND USES THEREOF” (Kymera Therapeutics, Inc., priority 2023, published 2026).
